Article PMC6042327

Key:
[1] = molecular target: T1, full-length SGTA (small glutamine-rich, tetratricopeptide repeat-containing protein alpha), 1-313 (human), O43765; assay: SAXS; 10 mM KPi, 100 mM NaCl, pH 6.0, 25 °C, protein 0.5-8.8 mg/ml; molecular weight from forward scattering against bovine serum albumin; self-association; conditions: remark: other sources report otherwise
T1 chain: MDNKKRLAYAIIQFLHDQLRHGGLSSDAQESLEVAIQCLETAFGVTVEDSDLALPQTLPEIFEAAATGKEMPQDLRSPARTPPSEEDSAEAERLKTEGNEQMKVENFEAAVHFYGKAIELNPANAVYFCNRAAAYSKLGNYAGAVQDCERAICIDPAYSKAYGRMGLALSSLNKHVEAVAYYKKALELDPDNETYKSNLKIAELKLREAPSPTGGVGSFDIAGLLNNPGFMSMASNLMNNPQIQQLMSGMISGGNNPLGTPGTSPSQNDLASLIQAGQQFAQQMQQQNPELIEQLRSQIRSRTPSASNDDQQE

[2] = molecular target: T1, full-length SGTA (small glutamine-rich, …); assay: native MS; protein 5-10 uM in 0.20-0.75 M ammonium acetate pH 7.0, electrosprayed, source temperature 20 °C; self-association (monomer to dimer); conditions: remark: other sources report otherwise

B1: full-length SGTA (small glutamine-rich, tetratricopeptide repeat-containing protein alpha), 1-313, O43765 1-313 (natural protein)
chain: T1 chain
For B1, which stoichiometry N [1] is on record?
The stoichiometry N was 2.

What about the stoichiometry N [2] of the same binder?
The stoichiometry N was 2.
